# ± gives the uncertainty stated by the source.
# B1: X-ray repair cross-complementing protein 6, residues 558 to 609; numbered along this chain, P12956 (parent)
# chain: EYSEEELKTHISKGTLGKFTVPMLKEACRAYGLKSGLKKQELLEALTKHFQD
# Variants of: B1
# Assay: abundance fitness (aPCA) (normalised: wild type 0, dead -1); higher = more abundant; growth selection in yeast, the domain comes from the species named
# Settings: Homo sapiens
row,Variant,abundance fitness
1,EYSEEELKTHISKGTLGKFTVPMLKEACRAYGLKSGLKKQEFLEALTKHFQD [L42F],-0.182 ± 0.48
2,EYSEEELKTHISKGTLGKFTVPMLKEACRAYGLKSGLKKQELLEQLTKHFQD [A45Q],-0.015 ± 0.071
3,EYSEEELKTHISKGTLGKFTVPMLKEACRAYGLKSGLKKQELLELLTKHFQD [A45L],-0.193 ± 0.039
4,EYSEEELKTHISKGTLGKFTVPMLKEACRAYGLKSGLKKQELLERLTKHFQD [A45R],-0.273 ± 0.061
5,EYSEEELKTHISKGTLGKFTVPMLKEACRAYGLKSGLKKQELLEHLTKHFQD [A45H],-0.577 ± 0.083
6,EYSEEELKTHISKGTLGKFTVPMLKEACRAYGLKSGLKKQELLEILTKHFQD [A45I],-0.486 ± 0.09
7,EYSEEELKTHISKGTLGKFTVPMLKEACRAYGLKSGLKKQELLENLTKHFQD [A45N],-0.121 ± 0.098
8,EYSEEELKTHISKGTLGKFTVPMLKEACRAYGLKSGLKKQELLEPLTKHFQD [A45P],-0.654 ± 0.1
9,EYSEEELKTHISKGTLGKFTVPMLKEACRAYGLKSGLKKQELLEWLTKHFQD [A45W],-0.641 ± 0.054
10,EYSEEELKTHISKGTLGKFTVPMLKEACRAYGLKSGLKKQELLEKLTKHFQD [A45K],-0.336 ± 0.06
11,EYSEEELKTHISKGTLGKFTVPMLKEACRAYGLKSGLKKQELLEGLTKHFQD [A45G],-0.294 ± 0.043
12,EYSEEELKTHISKGTLGKFTVPMLKEACRAYGLKSGLKKQELLETLTKHFQD [A45T],-0.003 ± 0.048
13,EYSEEELKTHISKGTLGKFTVPMLKEACRAYGLKSGLKKQELLEVLTKHFQD [A45V],-0.1 ± 0.054
14,EYSEEELKTHISKGTLGKFTVPMLKEACRAYGLKSGLKKQELLEDLTKHFQD [A45D],-0.533 ± 0.081
15,EYSEEELKTHISKGTLGKFTVPMLKEACRAYGLKSGLKKQELLEYLTKHFQD [A45Y],-0.752 ± 0.16
16,EYSEEELKTHISKGTLGKFTVPMLKEACRAYGLKSGLKKQELLESLTKHFQD [A45S],-0.14 ± 0.064
17,EYSEEELKTHISKGTLGKFTVPMLKEACRAYGLKSGLKKQELLECLTKHFQD [A45C],-0.116 ± 0.082
18,EYSEEELKTHISKGTLGKFTVPMLKEACRAYGLKSGLKKQELLEASTKHFQD [L46S],-0.361 ± 0.093
19,EYSEEELKTHISKGTLGKFTVPMLKEACRAYGLKSGLKKQELLEAETKHFQD [L46E],-0.798 ± 0.23
20,EYSEEELKTHISKGTLGKFTVPMLKEACRAYGLKSGLKKQELLEAHTKHFQD [L46H],-0.987 ± 0.36
21,EYSEEELKTHISKGTLGKFTVPMLKEACRAYGLKSGLKKQELLEADTKHFQD [L46D],-0.388 ± 0.053
22,EYSEEELKTHISKGTLGKFTVPMLKEACRAYGLKSGLKKQELLEARTKHFQD [L46R],-0.773 ± 0.13
23,EYSEEELKTHISKGTLGKFTVPMLKEACRAYGLKSGLKKQELLEAFTKHFQD [L46F],-0.772 ± 0.18
24,EYSEEELKTHISKGTLGKFTVPMLKEACRAYGLKSGLKKQELLEAATKHFQD [L46A],-0.777 ± 0.12
25,EYSEEELKTHISKGTLGKFTVPMLKEACRAYGLKSGLKKQELLEAMTKHFQD [L46M],-0.874 ± 0.22

row,Variant,abundance fitness
1,EYSEEELKTHISKGTLGKFTVPMLKEACRAYGLKSGLKKQELLEANTKHFQD [L46N],-0.832 ± 0.36
2,EYSEEELKTHISKGTLGKFTVPMLKEACRAYGLKSGLKKQELLEAWTKHFQD [L46W],-0.415 ± 0.14
3,EYSEEELKTHISKGTLGKFTVPMLKEACRAYGLKSGLKKQELLEAGTKHFQD [L46G],-0.597 ± 0.045
4,EYSEEELKTHISKGTLGKFTVPMLKEACRAYGLKSGLKKQELLEACTKHFQD [L46C],-0.805 ± 0.32
5,EYSEEELKTHISKGTLGKFTVPMLKEACRAYGLKSGLKKQELLEAVTKHFQD [L46V],-0.327 ± 0.071
6,EYSEEELKTHISKGTLGKFTVPMLKEACRAYGLKSGLKKQELLEATTKHFQD [L46T],-0.916 ± 0.2
7,EYSEEELKTHISKGTLGKFTVPMLKEACRAYGLKSGLKKQELLEAPTKHFQD [L46P],-0.531 ± 0.068
8,EYSEEELKTHISKGTLGKFTVPMLKEACRAYGLKSGLKKQELLEAITKHFQD [L46I],-0.649 ± 0.38
9,EYSEEELKTHISKGTLGKFTVPMLKEACRAYGLKSGLKKQELLEAQTKHFQD [L46Q],-0.78 ± 0.38
10,EYSEEELKTHISKGTLGKFTVPMLKEACRAYGLKSGLKKQELLRALTKHFQD [E44R],-0.234 ± 0.045
11,EYSEEELKTHISKGTLGKFTVPMLKEACRAYGLKSGLKKQELLKALTKHFQD [E44K],-0.406 ± 0.092
12,EYSEEELKTHISKGTLGKFTVPMLKEACRAYGLKSGLKKQELLLALTKHFQD [E44L],-0.2 ± 0.042
13,EYSEEELKTHISKGTLGKFTVPMLKEACRAYGLKSGLKKQELLMALTKHFQD [E44M],-0.128 ± 0.079
14,EYSEEELKTHISKGTLGKFTVPMLKEACRAYGLKSGLKKQELLGALTKHFQD [E44G],-0.193 ± 0.056
15,EYSEEELKTHISKGTLGKFTVPMLKEACRAYGLKSGLKKQELLDALTKHFQD [E44D],-0.002 ± 0.052
16,EYSEEELKTHISKGTLGKFTVPMLKEACRAYGLKSGLKKQELLFALTKHFQD [E44F],-0.213 ± 0.054
17,EYSEEELKTHISKGTLGKFTVPMLKEACRAYGLKSGLKKQELLCALTKHFQD [E44C],-0.194 ± 0.058
18,EYSEEELKTHISKGTLGKFTVPMLKEACRAYGLKSGLKKQELLAALTKHFQD [E44A],-0.143 ± 0.043
19,EYSEEELKTHISKGTLGKFTVPMLKEACRAYGLKSGLKKQELLIALTKHFQD [E44I],-0.358 ± 0.096
20,EYSEEELKTHISKGTLGKFTVPMLKEACRAYGLKSGLKKQELLNALTKHFQD [E44N],-0.065 ± 0.1
21,EYSEEELKTHISKGTLGKFTVPMLKEACRAYGLKSGLKKQELLYALTKHFQD [E44Y],-0.105 ± 0.07
22,EYSEEELKTHISKGTLGKFTVPMLKEACRAYGLKSGLKKQELLHALTKHFQD [E44H],-0.198 ± 0.099
23,EYSEEELKTHISKGTLGKFTVPMLKEACRAYGLKSGLKKQELLVALTKHFQD [E44V],-0.332 ± 0.053
24,EYSEEELKTHISKGTLGKFTVPMLKEACRAYGLKSGLKKQELLTALTKHFQD [E44T],-0.165 ± 0.068
25,EYSEEELKTHISKGTLGKFTVPMLKEACRAYGLKSGLKKQELLWALTKHFQD [E44W],-0.27 ± 0.068

# Reference: the Human Domainome abundance scans (Beltran et al. 2025)
